By Ki is commonly meant a measure of affinity in units of concentration, obtained from inhibition or displacement.

The chains behind the UniProt entries cited, without tags or fusion partners.
UniProt P23977, whole entry: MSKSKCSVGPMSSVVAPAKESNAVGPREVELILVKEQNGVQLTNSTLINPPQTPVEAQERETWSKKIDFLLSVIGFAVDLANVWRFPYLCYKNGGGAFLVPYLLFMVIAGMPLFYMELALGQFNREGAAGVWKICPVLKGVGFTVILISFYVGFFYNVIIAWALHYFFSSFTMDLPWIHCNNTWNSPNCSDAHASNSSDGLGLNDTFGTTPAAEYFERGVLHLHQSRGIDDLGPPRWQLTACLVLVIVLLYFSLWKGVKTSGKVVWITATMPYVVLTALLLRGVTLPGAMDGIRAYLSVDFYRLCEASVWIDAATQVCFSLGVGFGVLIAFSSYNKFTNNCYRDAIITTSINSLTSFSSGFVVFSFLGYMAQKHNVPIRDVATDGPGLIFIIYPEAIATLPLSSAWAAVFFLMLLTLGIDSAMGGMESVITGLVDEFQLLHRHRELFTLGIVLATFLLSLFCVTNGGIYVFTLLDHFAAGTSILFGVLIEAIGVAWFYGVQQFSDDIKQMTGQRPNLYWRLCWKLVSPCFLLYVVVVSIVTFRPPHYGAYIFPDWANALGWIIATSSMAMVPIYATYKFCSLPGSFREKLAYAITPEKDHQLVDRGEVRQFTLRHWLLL

For this assay, the target named is rDAT (Rattus norvegicus, UniProt P23977). Put plainly: Radioligand binding assay of rDAT with [3H]WIN35,428 in rat striatal membranes. The settings on record: read-out: Ki at DAT; [3H]WIN35,428 as the radioligand.

For the molecule `Fc1ccc(C(SCCNCCCc2ccccc2)c2ccc(F)cc2)cc1` [JJC8-016], the Ki was 234 nM.

Values taken from PMC9593962 (Journal of chemical information and modeling, 2021).
